Displacement data for 37 compounds are collected here from PubChem BioAssay AID583 (Sanford-Burnham Center for Chemical Genomics, 2007).

The chains behind the UniProt entries cited, without tags or fusion partners.
UniProt P0DMV8, whole entry, looked up: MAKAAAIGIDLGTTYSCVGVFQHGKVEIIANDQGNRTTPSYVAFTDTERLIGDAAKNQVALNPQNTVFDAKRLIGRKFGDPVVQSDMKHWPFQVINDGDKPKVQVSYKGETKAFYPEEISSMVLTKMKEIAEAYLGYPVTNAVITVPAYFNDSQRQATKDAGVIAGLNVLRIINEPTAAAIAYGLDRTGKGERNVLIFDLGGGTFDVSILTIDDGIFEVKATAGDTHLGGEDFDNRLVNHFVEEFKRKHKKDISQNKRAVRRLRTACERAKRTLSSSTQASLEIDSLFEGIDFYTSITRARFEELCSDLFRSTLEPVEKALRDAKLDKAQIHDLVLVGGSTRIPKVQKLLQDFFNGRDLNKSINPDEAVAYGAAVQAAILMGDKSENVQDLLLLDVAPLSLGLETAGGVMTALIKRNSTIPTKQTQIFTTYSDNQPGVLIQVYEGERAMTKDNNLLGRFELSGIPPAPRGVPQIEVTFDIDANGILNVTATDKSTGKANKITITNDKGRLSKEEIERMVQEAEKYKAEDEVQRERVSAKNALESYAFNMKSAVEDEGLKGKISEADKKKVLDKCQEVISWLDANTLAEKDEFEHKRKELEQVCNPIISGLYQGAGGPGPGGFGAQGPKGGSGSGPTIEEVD

Molecules are shown by their SMILES. This is a selection; strong and weak results do not stand in their true shares. The source made the active and inactive calls. No stated cut-off is given here; in the data, active means displacement above about 50%; inactive means the rest.

The assay has as its target Heat shock 70 kDa protein 1A (Homo sapiens) (UniProt P0DMV8). The experiment in a line: small molecules displacing fluorescent ligand from Hsp70 – biochemical, fluorescence polarization, primary screen (AID 583).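 Further: plate controls were vehicle for no effect and reference ligand for full effect.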 The following applies: Hsp70 fluorescence polarization probe displacement, mP; at 20 µM; stronger effect = higher value. In general terms: In fluorescence polarisation assays a small probe gives low polarisation when free and higher when bound to something large.
For the compound `Cc1c2non([O-])c-2c(C)[n+](=O)[n+]1[O-]`, the displacement was inactive: -3.3%. With `Oc1ccccc1CNc1ccccn1`, the displacement is inactive: 4.1%.

Turning to `CCCCOP(=O)(OCCCC)SC`, the displacement was inactive: -2.6%. For `CCOP(=O)(Nc1ccccc1)OCC`, the displacement was inactive: -2.6%. For the compound `CC1CCN(C(=O)Oc2c(Cl)cc(Cl)c3cccnc23)CC1`, the displacement is inactive: 5.2%. `O=[N+]([O-])c1cccc2n[nH]nc12`: the displacement was inactive: 0.8%. As to `CCc1nc2c(n1)c1c(non1O)c1c2no[n+]1[O-]`, the displacement is inactive: 0%. `O=P(Nc1nccs1)(c1ccccc1)c1ccccc1`: the displacement is inactive: -8%. Turning to `c1nnnn1CCn1cnnn1`, the displacement was inactive: -1.9%. The result for `CCOC(=O)NC(Sc1nc2ccccc2o1)C(Cl)(Cl)Cl` (configuration not stated) reads inactive: 3.9%; that for `O=C(OC1CN2CCC1CC2)c1cccc(Cl)c1` (configuration not stated), inactive: -3.8%; that for `CCCCSP(=O)(OCC(C)C)OCC(C)C`, inactive: 6.4%. With `O=CNC(Sc1nc2ccccc2o1)C(Cl)(Cl)Cl` (configuration not stated), the displacement is inactive: 2%. For `COC(=O)c1cc2c(s1)N=C(c1ccccc1)N(C)P2(=O)N1CCOCC1` (configuration not stated), the displacement is inactive: -2%. With `COC(=O)NC(Sc1ccc(Cl)cc1)C(Cl)Cl` (configuration not stated), the displacement is inactive: 5.7%.

On to `O=P1(Nc2nc3ccc(Cl)cc3s2)COc2ccccc2O1` (configuration not stated), for which the displacement was inactive: 4.4%. For `Cc1cccc(OCC(=O)OC2CN3CCC2CC3)c1` (configuration not stated), the displacement is inactive: 1.7%. Take `CCOP1(=S)c2c(C)nn(CCC#N)c2N=C(c2ccc(F)cc2)N1C` (configuration not stated): the displacement is inactive: 0.8%.

With `O=P(Nc1nccs1)(c1ccccc1)c1nc2ccccc2s1` (configuration not stated), the displacement was inactive: -2.3%. The result for `CCOP1(=S)c2c(C)nn(CCC#N)c2N=C(c2ccccc2F)N1C` (configuration not stated) reads inactive: 5.2%; that for `O=P1(Nc2ncccn2)COc2ccccc2OC1`, inactive: 1.9%; that for `Cc1ccc(OCC(=O)OC2CN3CCC2CC3)cc1` (configuration not stated), inactive: 4.4%. `O=P1(Nc2ccc(Br)cn2)COc2ccccc2OC1`: the displacement was inactive: 0.2%. Regarding `Cc1ccc(SC(NC(=O)c2ccccc2)C(Cl)Cl)cc1` (configuration not stated), the displacement is inactive: -4.8%. In the case of `Cc1nn(-c2ccccc2)c2c1P(=O)(N1CCOCC1)N(C)C(c1ccccc1)=N2` (configuration not stated) it was inactive: 6.1%; in that of `CC1(CBr)Cn2c(nc3ccccc3c2=O)S1` (configuration not stated), inactive: -1.6%; in that of `O=P1(Nc2ccccn2)COc2ccccc2OC1`, inactive: 5%. With `Clc1n[nH]nc1-c1nn[nH][15n]1`, the displacement is inactive: 16.5%. Consider `Cc1cc(C)nc(SC(NC(=O)c2ccccc2)C(Cl)(Cl)Cl)n1` (configuration not stated), for which the displacement is inactive: 2.4%. In the case of `CCC(C)N(CC(C)C)C(=S)SC(NC(C)=O)C(Cl)(Cl)Cl` (configuration not stated) it was inactive: 3.1%; in that of `COC(=O)c1ccc(OP(=O)(Oc2ccc(Cl)cc2C)SCC(C)C)cc1` (configuration not stated), inactive: 0.2%. Consider `COP1(=S)c2c(C)nn(CCC#N)c2N=C(c2ccc(F)cc2)N1C` (configuration not stated), for which the displacement is inactive: -0.5%. In the case of `O=C(COc1ccccc1)OC1CN2CCC1CC2` (configuration not stated) it was inactive: 1.6%; in that of `ClCCSc1nnc(-c2cccnc2)o1`, inactive: 12.1%.

As to `O=C(NC(SC1=NCCS1)C(Cl)(Cl)Cl)c1ccc(I)cc1` (configuration not stated), the displacement is inactive: -5.5%. Take `O=C(CF)NC(Sc1ccc(Cl)cc1)C(Cl)(Cl)Cl` (configuration not stated): the displacement was inactive: -8.8%. Consider `O=C(OC1CN2CCC1CC2)C12CC3CC(CC(C3)C1)C2` (configuration not stated), for which the displacement was inactive: -3.7%.
